Measured values: patent US9029401B2 (The Regents of the University of California, priority 2011, dated 2015)

Sequences of proteins named here, by UniProt entry; tags and fusion partners are left off.
UniProt P34913, whole entry: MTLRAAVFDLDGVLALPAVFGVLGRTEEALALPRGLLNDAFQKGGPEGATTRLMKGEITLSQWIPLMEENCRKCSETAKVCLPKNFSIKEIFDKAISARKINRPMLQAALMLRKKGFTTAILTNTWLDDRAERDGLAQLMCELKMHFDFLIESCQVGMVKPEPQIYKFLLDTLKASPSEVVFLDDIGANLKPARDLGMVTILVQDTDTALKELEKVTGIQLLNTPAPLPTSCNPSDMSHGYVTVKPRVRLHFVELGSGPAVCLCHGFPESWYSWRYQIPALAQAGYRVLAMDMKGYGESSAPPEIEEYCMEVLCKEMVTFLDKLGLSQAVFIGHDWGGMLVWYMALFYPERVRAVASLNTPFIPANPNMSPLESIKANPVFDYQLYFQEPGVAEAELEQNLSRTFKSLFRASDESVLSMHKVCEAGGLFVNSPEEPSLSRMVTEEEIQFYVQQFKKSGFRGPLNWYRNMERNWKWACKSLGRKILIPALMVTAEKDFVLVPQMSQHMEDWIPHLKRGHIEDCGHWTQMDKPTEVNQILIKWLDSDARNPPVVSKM

Key:
HepG2 hepatoma cell line = assay: MTT cell viability assay, HepG2; assay type: cell-based; conditions: Homo sapiens, HepG2, 72 h, read-out: EC50 on cell viability, HepG2 (Liver)
Huh-7 hepatoma cell line = assay: MTT cell viability assay, Huh-7; assay type: cell-based; conditions: Homo sapiens, Huh-7, 72 h, read-out: EC50 on cell viability, Huh-7 (Liver)
human sEH = human sEH (Homo sapiens (Human), UniProt P34913); assay: Inhibitory activity against human sEH; assay type: biochemical

In the case of `O=C(NC12CC3CC(CC(C3)C1)C2)N[C@H]1CC[C@H](Oc2ccc(C(=O)O)cc2)CC1` [Compound 1471, reference compound], the pEC50 (HepG2 hepatoma cell line) was < 4.60 and the pEC50 (Huh-7 hepatoma cell line) was < 4.60.
Molecule `CNC(=O)c1ccc(O[C@H]2CC[C@H](NC(=O)Nc3ccc(OC(F)(F)F)cc3)CC2)cc1` [Compound 2227, trans-N-Methyl-4-{4-[3-(4-trifluoromethoxy-phenyl)-ureido]-cyclohexyloxy}-benzamide] has a pIC50 (human sEH; read-out: Human sEH IC50) of 9.30.
For `CNC(=O)c1ccc(O[C@H]2CC[C@@H](NC(=O)Nc3ccc(OC(F)(F)F)cc3)CC2)cc1` [Compound 2228, cis-N-Methyl-4-{4-[3-(4-trifluoromethoxy-phenyl)-ureido]-cyclohexyloxy}-benzamide], the pIC50 (human sEH) was 9.30.
With `CC(C)(C)OC(=O)c1cc(O[C@H]2CC[C@@H](NC(=O)Nc3ccc(Cl)c(C(F)(F)F)c3)CC2)ccn1` [Compound 2318, cis-4-{4-[3-(4-Chloro-3-trifluoromethyl-phenyl)-ureido]-cyclohexyloxy}-pyridine-2-carboxylic acid tert-butyl ester] the pIC50 (human sEH; read-out: Human sEH IC50) was 9.30.

pEC50, pIC50: −log10 of the molar value. Where two headings read alike, the source gives them in different places.
